Target: T1, GRPR (Homo sapiens, UniProt P30550)
T1 construct: host or cells: PC-3 cells
Test: Competition binding against [^125I]I-Tyr^4-bombesin in living PC-3 cells
Settings: radioligand [^125I]I-Tyr^4-BBN, 4 °C, 5 h, PBS 1% BSA
Procedure: For competition binding experiments live PC-3 cells were used. Using 12-well plates, 5 × 10^5 PC-3 cells were seeded in each well a day prior to the experiment. The day after, the supernatant was removed followed by washing of the cells with cold PBS (4 °C). Next 350 µL of PBS − 1% w/v bovine serum albumin (BSA) solution was added in the wells followed by 50 µl of the compound under investigation in the same buffer with increased concentrations (0 to 5000 nM). Finally, 100 µl of [^125I]I-Tyr^4-BBN (100,000 cpm, 24.6 fmol) in PBS − 1% w/v PBS solution were added and the cells were left to incubate at 4 °C for 5 h. Following a wash with PBS (4 °C), cells were treated with trypsin – EDTA solution and collected. Sample radioactivity was determined with a gamma counter and data analysis and curve fitting were done using GraphPad Prism 7 and a nonlinear regression model.
The statistical significance of the difference between the IC50s for the three conjugates tested was determined by one-way ANOVA with Tuckey’s post hoc analysis using GraphPad Prism.

Protein sequences, listed by entry. Tags and fused reporters are not part of them. Lines headed by an entry give the natural chain unless they say otherwise; changes in a name come on top.
UniProt P30550: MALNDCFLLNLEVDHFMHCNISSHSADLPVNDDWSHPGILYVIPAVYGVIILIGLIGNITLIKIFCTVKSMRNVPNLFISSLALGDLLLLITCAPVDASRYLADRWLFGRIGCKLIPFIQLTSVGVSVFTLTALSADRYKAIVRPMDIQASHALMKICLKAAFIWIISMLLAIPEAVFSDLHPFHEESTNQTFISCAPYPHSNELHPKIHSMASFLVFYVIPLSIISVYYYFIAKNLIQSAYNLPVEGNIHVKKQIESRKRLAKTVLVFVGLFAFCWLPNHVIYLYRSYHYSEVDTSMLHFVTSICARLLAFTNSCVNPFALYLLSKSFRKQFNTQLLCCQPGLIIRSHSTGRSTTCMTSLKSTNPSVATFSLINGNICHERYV

Substance: ^natGa-NOTA-PEG2-RM26: ^natGa-loaded NOTA-PEG2-RM26 serving as an internal control
- IC50: 4.2 nM

— PMC11748620, “Evaluation of maSSS/maSES-PEG2-RM26 for their potential therapeutic use after labeling with Re-188. Could their [^99mTc]Tc-labeled counterparts be used to estimate dosimetry?” (EJNMMI Radiopharmacy and Chemistry, 2025)
